Test results from ChEMBL document CHEMBL5226279, “Mercaptoacetamide: A promising zinc-binding group for the discovery of selective histone deacetylase 6 inhibitors” (Eur J Med Chem, 2021).

Assay: Efflux ratio of apparent permeability in human Caco-2 cells
Format: ADME, cell-based

- efflux ratio: 1.36
SMILES: CN(C)c1ccc(C(=O)NCCCCCNC(=O)CS)cc1
